{
  "sequences": {"note": "Protein sequences, listed by entry. Tags and fused reporters are not part of them.", "UniProt P19784, whole entry": "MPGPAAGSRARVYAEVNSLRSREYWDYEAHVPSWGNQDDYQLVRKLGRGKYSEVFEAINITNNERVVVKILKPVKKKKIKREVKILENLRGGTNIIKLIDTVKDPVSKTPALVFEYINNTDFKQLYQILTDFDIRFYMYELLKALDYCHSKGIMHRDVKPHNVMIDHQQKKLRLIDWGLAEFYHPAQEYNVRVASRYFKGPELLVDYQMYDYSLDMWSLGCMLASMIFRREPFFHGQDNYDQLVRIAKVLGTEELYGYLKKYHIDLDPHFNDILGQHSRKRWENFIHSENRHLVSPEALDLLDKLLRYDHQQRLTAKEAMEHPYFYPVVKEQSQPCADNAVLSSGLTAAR"},
  "source": "patent US20260199350A1",
  "about": "“FLAVONES, QUINOLINONES, QUINAZOLINONES, AND AURONES, AND USES IN CK2-MEDIATED DISEASES” (Salk Institute for Biological Studies, priority 2022, published 2026)",
  "biological_target": "T1, CK2A2 (Homo sapiens, UniProt P19784)",
  "T1 construct": "purchased Eurofins",
  "assay": "Radiometric kinase assay (Eurofins), CK2A2",
  "assay_type": "biochemical",
  "data": [
    {"compound": "O=c1cc(-c2ccc(O)c(Br)c2)oc2c(Br)cc(Br)cc12", "note": "[JKT.464A]", "values": [
      {"measurement": "Window of selectivity for CK2A2 over CK2A1", "result": "striking"}
    ]}
  ]
}
